Publication PMC12277127 (Nucleic Acids Research, 2024)

Target: T1, mono-ubiquitin (human, UniProt P0CG48 1-76)
T1 construct: ubiquitin, human (hUb), the 76-residue mature protein cut from a polyubiquitin or fusion precursor; source: E. coli BL21(DE3), purified (tag-free from pGEX-6P1-hUb, or His-tagged from pNIC28-Ub)
Assay: SPR; SPRTN PIP-UBZ amine-coupled to a CM5 chip (~1000 RU); analytes monoUb, PCNA, monoUb-PCNA; 50 mM HEPES pH 7.4, 50 mM NaCl, 0.5 mM TCEP-HCl; steady-state affinity model
Settings: both partners purified

B1: SPRTN PIP-UBZ (320-489) (domain or fragment, human, UniProt Q9H040 320-489, looked up)
chain: VSNSHQNVLSNYFPRVSFANQKAFRGVNGSPRISVTVGNIPKNSVSSSSQRRVSSSKISLRNSSKVTESASVMPSQDVSGSEDTFPNKRPRLEDKTVFDNFFIKKEQIKSSGNDPKYSTTTAQNSSSSSSQSKMVNCPVCQNEVLESQINEHLDWCLEGDSIKVKSEESL
notes: SPRTN, human, PIP box to UBZ, residues 320-489; plasmid pCold I-SPRTN-PIP-UBZ (320-489); Its purification is not described; amine-coupled to a CM5 chip for SPR
B1 was tested, and the Kd was 4.2 ± 0.9 µM.
